Measured values taken from ChEMBL document CHEMBL4627396 (J Med Chem, 2020).

By UniProt entry, the sequences of proteins in these tests, tags left out. Where a name states a change or a piece, a line headed by the entry shows the natural chain unless it says otherwise.
UniProt O60331: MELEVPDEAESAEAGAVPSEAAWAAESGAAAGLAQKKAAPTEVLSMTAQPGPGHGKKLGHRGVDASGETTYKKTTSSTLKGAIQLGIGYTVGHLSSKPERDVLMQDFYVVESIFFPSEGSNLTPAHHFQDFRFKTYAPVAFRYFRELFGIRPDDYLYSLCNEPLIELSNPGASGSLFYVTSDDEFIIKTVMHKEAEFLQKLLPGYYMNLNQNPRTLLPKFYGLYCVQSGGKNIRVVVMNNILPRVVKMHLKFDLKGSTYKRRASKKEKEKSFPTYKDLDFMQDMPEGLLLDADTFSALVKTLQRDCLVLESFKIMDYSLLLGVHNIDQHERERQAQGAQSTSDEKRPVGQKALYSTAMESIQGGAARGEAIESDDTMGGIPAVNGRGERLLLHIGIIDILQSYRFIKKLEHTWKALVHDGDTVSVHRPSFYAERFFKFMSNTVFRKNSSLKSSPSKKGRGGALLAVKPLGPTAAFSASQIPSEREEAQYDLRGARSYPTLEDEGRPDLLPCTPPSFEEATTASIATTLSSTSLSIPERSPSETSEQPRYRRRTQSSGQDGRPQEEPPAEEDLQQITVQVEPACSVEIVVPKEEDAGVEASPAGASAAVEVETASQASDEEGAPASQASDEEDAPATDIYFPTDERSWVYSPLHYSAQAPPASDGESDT

Columns and labels:
[1] = target: Phosphatidylinositol 4-phosphate 5-kinase type-1 gamma (Homo sapiens, UniProt O60331); assay: Binding affinity to wild-type human partial length PIP5K1C (M1 to T668 residues) expressed in mammalian expression system assessed as residual binding level at 1 uM by Kinomescan method relative to control
[2] = Volume of distribution at steady state in Crl:CD Sprague-Dawley rat at 1 mg/kg, iv; assay type: ADME, organism-based; settings: in vivo
[3] = Apparent permeability across apical to basolateral side in human Caco2 cells; assay type: ADME, cell-based; settings: caco-2
[4] = AUC (0 to infinity) in Crl:CD Sprague-Dawley rat at 1 mg/kg, iv; assay type: ADME, organism-based; parameters: dose 1 mg/kg, route intravenous, time infinity; settings: in vivo
[5] = Protein binding in mouse plasma; assay type: ADME, cell-free

SMILES: CC(C)(C#N)c1cc(Nc2nc(N3CCC[C@H](N)C3)ncc2C(N)=O)cc(C(C)(C)C#N)c1
- Activity [1]: 3%
- Vdss [2]: 40.3 L/kg
- Papp [3]: 1.1 ×10⁻⁶ cm/s
- AUC [4]: 134 ng·h/mL
- PPB [5]: 98.4%
